These compounds were tested against KRAS-G12C/SOS1 (Homo sapiens (Human), UniProt Q07889) (assay: Detection of inhibitory effects of compounds on KRAS-G12C/SOS1 (KRASG12C/SOS binding kit, HTRF)). Details: read-out: IC50, inhibitory activity on interaction of KRAS-G12C/SOS1, Em665/620.
Description: Experimental objective: The inhibitory effects of the tested compounds on KRAS-G12C/SOS1 were detected. IC50 was used to characterize the inhibitory ability of the compounds on the KRAS-G12C/SOS1. The lower IC50 value indicated the stronger inhibitory ability. BI-3406 was used as a positive control compound.
Experimental reagents: KRASG12C/SOS binding kit (Cisbio, cat. 63ADK000CB16PEG); DMSO (Sigma, cat. D8418-1L); and 384-well white plate (PerkinElmer, cat. 6007290)
• 1. Preparation of compounds: the test compounds were dissolved in 100% DMSO to obtain 10 mM stock solutions and the stock solutions were stored in a refrigerator in the dark. • 2. Kinase reaction process:
Preparation of compounds: the test compounds had the concentration of 5,000 nM and diluted in a 384-well plate into a 100% DMSO solution at the 200-fold final concentration, and the compounds were diluted 3-fold with 10 concentrations. 50 nL of the compounds at the 200-fold final concentration were transferred to the plate of interest, the 384-well plate, using a dispenser Echo 550. 50 nL of 100% DMSO was added to each negative control well and positive control well.
A Tag1-SOS1 solution at the 4-fold final concentration was prepared using a diluent buffer.
2.5 μL of the Tag1-SOS1 solution at the 4-fold final concentration was added to the 384-well plate.
A Tag2-KRAS-G12C solution at the 4-fold final concentration was prepared using the diluent buffer.
2.5 μL of the Tag2-KRAS-G12C solution at the 4-fold final concentration was respectively added into compound wells and the positive control wells; and 2.5 μL of the diluent buffer was added to the negative control wells.
The 384-well plate was centrifuged at 1,000 rpm for 30 seconds, shaken and mixed uniformly, and incubated at room temperature for 15 minutes.
An Anti-Tag1-TB3+ solution at the 1-fold final concentration and an Anti-Tag2-XL665 solution at the 1-fold final concentration were prepared using a detection buffer, the two solutions were mixed uniformly to obtain a Mix solution, and 5 μL of the Mix solution was added into each well.
The 384-well plate was centrifuged at 1,000 rpm for 30 seconds, shaken and mixed uniformly, and incubated at 4° C. for 120 minutes.
Em665/620 was read using an Envision microplate reader.
Inhibition %=(Max signal−Compound signal)/(Max signal−Min signal)×100 Calculation formula • wherein the Min signal was the mean value of the negative control wells, and the Max signal was the mean value of the positive control wells.
A dose-response curve was fitted using the log value of the concentration as an X axis and the percentage of the inhibitory rate as a Y axis by using the log(inhibitor) vs. response-variable slope of an analytical software GraphPadPrism5, thereby obtaining the IC50 value of each compound on an enzyme activity.

The chains behind the UniProt entries cited, without tags or fusion partners. Where a name states a change or a piece, a line headed by the entry shows the natural chain unless it says otherwise.
UniProt Q07889, whole entry, stated change not applied: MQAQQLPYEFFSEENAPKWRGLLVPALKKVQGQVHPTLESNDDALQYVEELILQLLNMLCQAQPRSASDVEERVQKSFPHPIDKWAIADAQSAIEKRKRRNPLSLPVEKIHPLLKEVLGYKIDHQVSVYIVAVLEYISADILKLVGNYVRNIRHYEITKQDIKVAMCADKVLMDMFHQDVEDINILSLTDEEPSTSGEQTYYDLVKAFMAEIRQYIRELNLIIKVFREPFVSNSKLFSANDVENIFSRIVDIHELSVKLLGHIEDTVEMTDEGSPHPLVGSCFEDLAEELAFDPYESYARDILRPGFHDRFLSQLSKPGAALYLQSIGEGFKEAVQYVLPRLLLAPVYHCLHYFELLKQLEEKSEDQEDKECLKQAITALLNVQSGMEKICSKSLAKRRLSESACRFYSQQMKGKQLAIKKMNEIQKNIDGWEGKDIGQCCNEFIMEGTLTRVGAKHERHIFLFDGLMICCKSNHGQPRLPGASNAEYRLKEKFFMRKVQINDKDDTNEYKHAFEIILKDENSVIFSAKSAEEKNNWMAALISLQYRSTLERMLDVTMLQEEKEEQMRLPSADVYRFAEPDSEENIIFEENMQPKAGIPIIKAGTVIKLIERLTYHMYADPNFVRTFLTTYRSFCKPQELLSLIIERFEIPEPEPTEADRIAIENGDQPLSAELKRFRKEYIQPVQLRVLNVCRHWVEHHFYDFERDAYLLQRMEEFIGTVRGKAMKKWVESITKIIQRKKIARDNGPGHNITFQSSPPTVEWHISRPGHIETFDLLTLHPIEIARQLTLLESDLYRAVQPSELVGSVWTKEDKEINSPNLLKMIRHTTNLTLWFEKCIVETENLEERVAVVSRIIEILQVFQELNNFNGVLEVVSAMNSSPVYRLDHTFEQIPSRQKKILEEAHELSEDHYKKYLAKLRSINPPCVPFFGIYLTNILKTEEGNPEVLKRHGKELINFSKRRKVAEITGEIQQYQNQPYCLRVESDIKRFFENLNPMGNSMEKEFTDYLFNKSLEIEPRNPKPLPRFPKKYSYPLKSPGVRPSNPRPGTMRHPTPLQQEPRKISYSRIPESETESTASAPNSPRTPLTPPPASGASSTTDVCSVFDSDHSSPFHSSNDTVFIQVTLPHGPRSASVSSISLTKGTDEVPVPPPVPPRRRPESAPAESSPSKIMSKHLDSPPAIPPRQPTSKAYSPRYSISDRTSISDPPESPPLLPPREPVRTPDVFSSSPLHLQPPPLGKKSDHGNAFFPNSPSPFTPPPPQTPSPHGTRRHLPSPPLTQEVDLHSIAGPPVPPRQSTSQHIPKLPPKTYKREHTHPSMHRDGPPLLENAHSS

IC50, < 100 nM:
CC(=O)NC1CCC(O)(c2cc3c(N[C@H](C)c4cccc(C(F)F)c4F)ccnc3cn2)CC1 (single isomer, unassigned)
COC1CCC(OC)(c2cc3c(N[C@H](C)c4cccc(C(F)F)c4F)ccnc3cn2)CC1 (single isomer, unassigned)
C[C@@H](Nc1ccnc2cnc(C3(O)CCC(C)(O)CC3)cc12)c1cccc(C(F)F)c1F (single isomer, unassigned)
COC1CCC(O)(c2cc3c(N[C@H](C)c4cccc(C(F)F)c4F)ccnc3cn2)CC1 (single isomer, unassigned)
COC1(c2cc3c(N[C@H](C)c4cccc(C(F)F)c4F)ccnc3cn2)CCC(N(C)C)CC1 (single isomer, unassigned)
COc1nc(C2(O)CCC(O)CC2)cc2c(N[C@H](C)c3cccc(C(F)F)c3F)cc(C)nc12 (single isomer, unassigned)

From patent US20250042857A1, “SOS1 Inhibitor With Pyrido-Fused Six-Membered Ring Structure” (HAIHE BIOPHARMA CO., LTD., priority 2021, published 2025)
